For this test, the target named is SARS-CoV-2 M^pro (Severe acute respiratory syndrome coronavirus 2, UniProt P0DTD1).

Molecules are shown by their SMILES.

For the compound `O=C[C@H](C[C@@H]1CCNC1=O)NC(=O)[C@H](CC1CCCCC1)NC(=O)c1cc2ccccc2[nH]1` [FB2001], the “dissociation from SARS-CoV-2 M^pro compared with PF-07321332” value is listed as “more difficult to dissociate”.

These data come from article PMC9617675 (Antiviral Research, 2022).
